Only a part is listed here, and it is no random draw. The source made the active and inactive calls. Cut-off read from the data, not from the text of the source: active = inhibition above about 22%; inactive = the rest.
test: cytotoxic compounds in IEC-6 epithelial cells, confirmation, cytotoxicity control, cell-based, luminescence (AID 1907); details: IEC-6 rat intestinal epithelial viability, at 5 µM, stronger effect = higher value;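 note: 0% = vehicle and 100% = reference cytotoxic drug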

Compound	inhibition
C[N+]1=C2C=CC=CC=C2SC12C([N+](=O)[O-])=CC([N+](=O)[O-])=C[C-]2[N+](=O)[O-] (stereo unspecified)	active: 42.2%

Source: PubChem BioAssay AID1907 (The Scripps Research Institute Molecular Screening Center, 2009)
